“And” between values parts separate entries of the source, which are not always exact repeats. Equal values may be shown once.
How the values were obtained:
[1] = biological target: Delta-type opioid receptor (Homo sapiens, UniProt P41143); experiment: Inhibition of [3H]naltrindole binding to human Opioid receptor delta 1
Nociceptin receptor [2] = biological target: T1, Nociceptin receptor (Homo sapiens, UniProt P41146); experiment: Agonist activity as stimulation of [35S]-GTP-gamma binding to human Opioid receptor like 1
[3] = biological target: Kappa-type opioid receptor (Homo sapiens, UniProt P41145); experiment: Inhibition of [3H]U-69593 binding to human Opioid receptor kappa 1
Mu-type opioid receptor [4] = biological target: T2, Mu-type opioid receptor (Homo sapiens, UniProt P35372); experiment: Inhibition of [3H]diprenorphine binding to human Opioid receptor mu 1
Mu-type opioid receptor [5] = biological target: T2, Mu-type opioid receptor; experiment: Agonist activity as stimulation of [35S]-GTP-gamma binding to human Opioid receptor mu 1
Nociceptin receptor [6] = biological target: T1, Nociceptin receptor; experiment: Inhibition of [3H]nociceptin binding to human Opioid receptor like 1
Mu-type opioid receptor [7] = biological target: T2, Mu-type opioid receptor; experiment: Agonist activity as stimulation of [35S]-GTP-gamma binding to human Opioid receptor mu 1; Partial agonist
Mu-type opioid receptor [8] = biological target: T2, Mu-type opioid receptor; experiment: Agonist activity as stimulation of [35S]-GTP-gamma binding to human Opioid receptor mu 1; Antagonist
Mu-type opioid receptor [9] = biological target: T2, Mu-type opioid receptor; experiment: Agonist activity as stimu;ation of [35S]-GTP-gamma binding to human Opioid receptor mu 1; Partial antagonist

| SMILES | Ki [1] [nM] | EC50 (Nociceptin receptor [2]) | Ki [3] [nM] | Ki (Mu-type opioid receptor [4]) | EC50 (Mu-type opioid receptor [5]) | Ki (Nociceptin receptor [6]) | EC50 (Mu-type opioid receptor [7]) | EC50 (Mu-type opioid receptor [8]) | EC50 (Mu-type opioid receptor [9]) |
| --- | --- | --- | --- | --- | --- | --- | --- | --- | --- |
| CC(C)CCC(C)N1CCC(N2c3ccccc3CNS2(=O)=O)CC1 (stereo not drawn) | > 2000 | 1580 nM | > 2000 | 73 nM | 3160 nM | 40 nM |  |  |  |
| O=S1(=O)NCc2ccccc2N1C1CCN(Cc2ccc(OCc3ccccc3)cc2)CC1 | > 2000 |  | > 2000 |  |  | 1880 nM |  |  |  |
| O=S1(=O)Nc2ccccc2N1C1CCN(Cc2ccc3ccccc3c2)CC1 | > 2000 |  | > 2000 |  |  | > 10000 nM |  |  |  |
| CC(C)C1CCC(N2CCC(N3c4ccccc4CN(CC(N)=O)S3(=O)=O)CC2)CC1 (stereo not drawn) | > 2000 | 22 nM | > 2000 | 92 nM | 555 nM | 3.9 nM |  |  |  |
| O=S1(=O)NCc2ccccc2N1C1CCN(Cc2ccc(-c3ccccc3)cc2)CC1 | > 2000 |  | > 2000 |  |  | 9540 nM |  |  |  |
| O=S1(=O)Nc2ccccc2N1C1CCN(C2Cc3ccccc3C2)CC1 | > 2000 |  | > 2000 |  |  |  |  |  |  |
| CC(C)C1CCC(N2CCC(N3c4ccccc4CN(CCO)S3(=O)=O)CC2)CC1 (stereo not drawn) | > 2000 | 33 nM | > 2000 | 86 nM |  |  | Partial agonist |  |  |
| O=S1(=O)NCc2ccccc2N1C1CCN(C2CCC3CCCCC3C2)CC1 (stereo not drawn) | > 2000 | 160 nM | > 2000 | 91.7 nM | 1470 nM | 28.7 nM |  |  |  |
| O=S1(=O)NCc2ccccc2N1C1CCN(CCC(c2ccccc2)c2ccccc2)CC1 | > 2000 | 1650 nM | > 2000 | 13 nM | 801 nM | 83 nM |  |  |  |
| O=S1(=O)Nc2ccccc2N1C1CCN(C2CCCCCCC2)CC1 | > 2000 |  | > 2000 |  |  |  |  |  |  |
| CCCCN1Cc2ccccc2N(C2CCN(C3CCC(C(C)C)CC3)CC2)S1(=O)=O (stereo not drawn) | > 2000 | 78 nM | > 2000 | 38 nM | > 10000 nM |  |  |  |  |
| CCCC1CCC(N2CCC(N3c4ccccc4NS3(=O)=O)CC2)CC1 (stereo not drawn) | > 2000 |  | > 2000 |  |  |  |  |  |  |
| COC(=O)CN1Cc2ccccc2N(C2CCN(C3CCC(C(C)C)CC3)CC2)S1(=O)=O (stereo not drawn) | > 2000 | 166 nM | > 2000 | 182 nM |  |  | Partial agonist |  |  |
| O=S1(=O)NCc2ccccc2N1C1CCN(C2Cc3ccccc3C2)CC1 | > 2000 | 496 nM | > 2000 | 660 nM |  | 46 nM |  | Antagonist |  |
| CC(C)C1CCC(N2CCC(N3c4ccccc4CN(CC(=O)OC(C)(C)C)S3(=O)=O)CC2)CC1 (stereo not drawn) | > 2000 | 484 nM | > 2000 | 289 nM |  | 63 nM | Partial agonist |  |  |
| O=S1(=O)Nc2ccccc2N1C1CCN(Cc2ccc(-c3ccccc3)cc2)CC1 | > 2000 |  | > 2000 |  |  | > 10000 nM |  |  |  |
| O=S1(=O)NCc2ccccc2N1C1CCN(C2CCc3ccccc3C2)CC1 (stereo not drawn) | > 2000 |  | > 2000 |  |  | 2610 nM |  |  |  |
| CC(C)C1CCC(N2CCC(N3c4ccccc4CN(CC#N)S3(=O)=O)CC2)CC1 (stereo not drawn) | > 2000 | 227 nM | > 2000 | 25 nM | 344 nM |  |  |  |  |
| O=S1(=O)Nc2ccccc2N1C1CCN(CCC(c2ccccc2)c2ccccc2)CC1 | > 2000 |  | > 2000 |  |  |  |  |  |  |
| CCCC1CCC(N2CCC(N3c4ccccc4CNS3(=O)=O)CC2)CC1 (stereo not drawn) | > 2000 | 1610 nM | > 2000 | 188 nM | 3140 nM | 231 nM |  |  |  |
| O=S1(=O)Nc2ccccc2N1C1CCN(C2CCC3CCCCC3C2)CC1 (stereo not drawn) | > 2000 | 3360 nM | > 2000 | 5550 nM |  |  |  |  | Partial antagonist |
| CC(C)C1CCC(N2CCC(N3c4ccccc4CN(CCNS(C)(=O)=O)S3(=O)=O)CC2)CC1 (stereo not drawn) | > 2000 | 34 nM | > 2000 | 106 nM |  |  | Partial agonist |  |  |
| CC(C)C1CCC(N2CCC(N3c4ccccc4CNS3(=O)=O)CC2)CC1 (stereo not drawn) | > 2000 | 38 nM and 12 nM and 14 nM | > 2000 | 207 nM and 89 nM and 112 nM | 799 nM and 620 nM | 6.1 nM and 2.6 nM and 3.7 nM |  |  | Partial antagonist |
| CC(C)C1CCC(N2CCC(N3c4ccccc4NS3(=O)=O)CC2)CC1 (stereo not drawn) | > 2000 | 3070 nM | > 2000 | 748 nM |  |  |  |  | Partial antagonist |
| O=S1(=O)NCc2ccccc2N1C1CCN(C2CCCCCCC2)CC1 | > 2000 | 2010 nM | > 2000 | 1380 nM |  | 187 nM |  | Antagonist |  |
| O=S1(=O)Nc2ccccc2N1C1CCN(Cc2ccc(OCc3ccccc3)cc2)CC1 | > 2000 |  | > 2000 |  |  |  |  |  |  |
| O=S1(=O)NCc2ccccc2N1C1CCN(Cc2ccc3ccccc3c2)CC1 | > 2000 | 5590 nM | > 2000 | 294 nM | > 10000 nM | 609 nM |  |  |  |
| O=S1(=O)Nc2ccccc2N1C1CCN(C2CCc3ccccc3C2)CC1 (stereo not drawn) | > 2000 |  | > 2000 |  |  |  |  |  |  |
